The species named for assay [1] is Rattus norvegicus. In words: Ratio of Ki for rat GluA2 to Ki for rat GluK1.
Assay [2] deals with Glutamate receptor ionotropic, kainate 1 (Rattus norvegicus, UniProt P22756). In words: Displacement of [3H]SYM2081 from rat GluK1 expressed in Sf9 cells.
Assay [3] relates to GluK3/GluK1 Ki ratio (Rattus norvegicus). The assay is described as follows: Ratio of Ki for rat GluK3 to Ki for rat GluK1.

Sequences of proteins named here, by UniProt entry; tags and fusion partners are left off. A change or cut given only in a name is not applied to a line headed by its entry.
UniProt P22756: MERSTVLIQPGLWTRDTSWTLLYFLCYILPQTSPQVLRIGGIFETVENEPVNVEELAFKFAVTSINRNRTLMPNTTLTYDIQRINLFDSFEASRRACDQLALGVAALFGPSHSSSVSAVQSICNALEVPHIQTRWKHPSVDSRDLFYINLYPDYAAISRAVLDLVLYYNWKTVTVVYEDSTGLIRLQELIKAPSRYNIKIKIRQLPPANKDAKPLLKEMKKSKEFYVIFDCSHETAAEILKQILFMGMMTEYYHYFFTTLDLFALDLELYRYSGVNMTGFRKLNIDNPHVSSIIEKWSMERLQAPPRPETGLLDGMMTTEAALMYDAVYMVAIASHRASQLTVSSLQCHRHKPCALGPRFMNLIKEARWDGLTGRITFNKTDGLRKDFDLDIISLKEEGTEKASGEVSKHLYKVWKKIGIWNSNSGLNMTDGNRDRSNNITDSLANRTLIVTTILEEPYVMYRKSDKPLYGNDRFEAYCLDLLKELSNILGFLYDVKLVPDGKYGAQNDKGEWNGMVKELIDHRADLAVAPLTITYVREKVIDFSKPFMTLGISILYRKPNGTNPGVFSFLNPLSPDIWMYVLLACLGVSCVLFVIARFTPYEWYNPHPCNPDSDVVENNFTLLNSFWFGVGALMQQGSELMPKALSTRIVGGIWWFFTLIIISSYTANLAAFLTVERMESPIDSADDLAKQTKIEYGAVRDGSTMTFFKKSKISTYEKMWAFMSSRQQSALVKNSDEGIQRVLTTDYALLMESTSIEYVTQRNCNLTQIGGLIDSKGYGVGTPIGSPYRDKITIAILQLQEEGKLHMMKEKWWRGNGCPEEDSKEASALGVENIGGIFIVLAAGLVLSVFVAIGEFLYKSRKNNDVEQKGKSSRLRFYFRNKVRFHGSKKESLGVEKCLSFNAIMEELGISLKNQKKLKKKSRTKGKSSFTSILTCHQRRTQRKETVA

From ChEMBL document CHEMBL1811916, “Selective kainate receptor (GluK1) ligands structurally based upon 1H-cyclopentapyrimidin-2,4(1H,3H)-dione: synthesis, molecular modeling, and pharmacological and biostructural characterization” (J Med Chem, 2011) come the findings set out here.

Consider `N[C@@H](Cn1c(=O)[nH]c(=O)c2cscc21)C(=O)O`, for which, in assay [1], the Ratio Ki amounted to 119.

Compound `N[C@@H](Cn1c(=O)n(Cc2ccsc2C(=O)O)c(=O)c2cscc21)C(=O)O` showed a Ki in assay [2] of 157 nM.

Take `N[C@@H](Cn1c(=O)[nH]c(=O)c2ccsc21)C(=O)O`: the Ratio Ki in assay [1] turned out to be 85.

As to `N[C@@H](Cn1c(=O)[nH]c(=O)c2c3c(sc21)CCCC3)C(=O)O`, the Ratio Ki in assay [3] came out at 20.
